Our source for the Ki values is ChEMBL document CHEMBL3396991 (Eur J Med Chem, 2015).

Chains of the proteins cited; added tags and fusions are not shown. Lines headed by an entry give the natural chain unless they say otherwise; changes in a name come on top.
UniProt P34975: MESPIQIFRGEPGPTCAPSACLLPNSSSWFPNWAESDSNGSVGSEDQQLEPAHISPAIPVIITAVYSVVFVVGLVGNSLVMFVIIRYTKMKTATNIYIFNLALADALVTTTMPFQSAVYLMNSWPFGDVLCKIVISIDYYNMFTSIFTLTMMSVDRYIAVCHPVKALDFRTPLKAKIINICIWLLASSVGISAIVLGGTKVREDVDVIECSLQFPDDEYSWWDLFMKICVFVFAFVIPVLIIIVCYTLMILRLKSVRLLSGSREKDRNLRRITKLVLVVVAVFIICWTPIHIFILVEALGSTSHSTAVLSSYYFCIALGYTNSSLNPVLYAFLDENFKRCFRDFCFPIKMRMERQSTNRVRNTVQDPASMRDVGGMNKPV

Structures are written as SMILES.

This test concerns the target Kappa-type opioid receptor (Rattus norvegicus, UniProt P34975). Nature of the test: Displacement of [3H]U69593 from rat recombinant kappa opioid receptor expressed in CHO cells after 60 mins. For orientation: Displacement assays read how much labelled ligand stays bound in the presence of the test substance.

With `CN(C(=O)Cc1ccc(Cl)c(Cl)c1)[C@H]1CCCC[C@@H]1N1CCCC1`, the inhibition constant (Ki) (commonly the dissociation constant of the complex between target and ligand, obtained from inhibition or displacement) was 0.36 nM.
